# Antibody variant affinities, Ab-95 light chain, assay 2

All variants were tested on one target, the spike HR2 peptide PDVDLGDISGINAS (SARS-CoV-2).

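The starting antibody came from a phage panning campaign against this peptide. The library (AAYL52) carries one to three amino acid substitutions per variant, with no insertions or deletions. The assay is AlphaSeq: two haploid yeast populations carry antibody and antigen on their surface. Pairs that bind mate more often; barcode pairs of the diploids are counted by sequencing. A regression on co-assayed BCL2-family reference pairs converts the normalised counts of each replicate to an apparent Kd. Each pool was mated in three replicate cultures.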

Each scFv is VH, a 15-residue (Gly4Ser)3 linker, VL, as in the parent Ab-95, and differs from it in the CDRs of the light chain only.
VH: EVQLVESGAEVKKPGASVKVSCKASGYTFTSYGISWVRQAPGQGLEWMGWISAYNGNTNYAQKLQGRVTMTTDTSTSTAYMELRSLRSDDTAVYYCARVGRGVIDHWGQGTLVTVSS
VL: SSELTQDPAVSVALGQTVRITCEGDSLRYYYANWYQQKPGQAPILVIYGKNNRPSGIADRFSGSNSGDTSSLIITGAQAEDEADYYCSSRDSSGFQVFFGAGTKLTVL

Positions count from residue 1 of the parent VL; N51F puts F in place of N. Scale: log10 of Kd in nM, estimated from mating counts; low values are strong binders. Replicates are averaged; those with no signal do not enter the mean. An entry "no signal" has no value in the source: the pair was not observed among the diploids in any replicate. This suggests poor binding but is not conclusive. Nonspecific signal, from three strains lacking the peptide, appeared in 28% of pairings of library AAYL52, centred on 3.91 (5% of these signals below 2.90); values are not corrected for it. For reference, the parent read 2.31 as the reference entry and 2.25 as a member of this library.

| # | changes | mean, log10 nM | replicates with signal |
|---|---|---|---|
| 1 | N51F+P54R+R90M | no signal | 0/3 |
| 2 | E23P+K50T+F95V | 3.07 | 1/3 |
| 3 | R28M+N52C | 3.49 | 1/3 |
| 4 | N52M+P54D+F95V | 3.99 | 2/3 |
| 5 | Y31G+A32W+N52S | 2.44 | 3/3 |
| 6 | K50I+N51P+G94R | no signal | 0/3 |
| 7 | S26W+Y29Q+A32H | 4.35 | 1/3 |
| 8 | R28G+Y30C+N52F | 3.32 | 3/3 |
| 9 | E23P+S26N+S88L | 3.90 | 2/3 |
| 10 | G49I+F95V | 4.22 | 1/3 |
| 11 | E23W+Y30M+P54F | 2.46 | 3/3 |
| 12 | Y29A+G49W+F95V | 4.83 | 2/3 |
| 13 | G49F+V97M | 3.87 | 1/3 |
| 14 | D25I+Y31E+R90E | 3.41 | 1/3 |
| 15 | N51D+N52S+S89H | 3.02 | 3/3 |
| 16 | Y30M+R90P | 2.39 | 3/3 |
| 17 | Y29W+A32P+N33A | 3.09 | 1/3 |
| 18 | Y30Q+A32Y+S93H | 4.46 | 2/3 |
| 19 | L27K+P54Y+F98A | 2.45 | 3/3 |
| 20 | Y31G+D91G+F98L | 3.06 | 2/3 |
| 21 | D25V+Y29I+N51W | 3.14 | 1/3 |
| 22 | G24V+Y29M+Q96E | 3.31 | 3/3 |
| 23 | L27T+Y30G+S93E | 2.41 | 3/3 |

Second part, the sequence after the result:

| # | mean, log10 nM | replicates with signal | changes |
|---|---|---|---|
| 24 | 1.69 | 3/3 | Y29T+Y30I+F95Y |
| 25 | 2.52 | 3/3 | Y30R+F95D |
| 26 | 4.89 | 1/3 | N33F+P54H+D91H |
| 27 | 3.68 | 1/3 | K50L+S88H+F95D |
| 28 | 2.10 | 3/3 | D25A+R28P+K50H |
| 29 | 4.72 | 1/3 | E23P+L27W+P54M |
| 30 | 4.20 | 1/3 | N33V+S88K+F95R |
| 31 | 3.71 | 3/3 | G24N+Y30R+N51Y |
| 32 | 3.20 | 3/3 | E23A+F95D |
| 33 | 2.74 | 3/3 | Y31M+S89Y+S92V |
| 34 | 3.96 | 1/3 | G49W+N52I+S89Q |
| 35 | 3.32 | 3/3 | S26H+R53L |
| 36 | 2.45 | 3/3 | R28M+F95L |
| 37 | 3.49 | 3/3 | K50S+Q96R+F98R |
| 38 | 2.35 | 3/3 | D25M+G94C+V97C |
| 39 | no signal | 0/3 | G49W+N52W+S89A |
| 40 | 3.71 | 3/3 | A32R+S89H+D91E |
| 41 | 3.66 | 3/3 | L27I+G94L |
| 42 | 3.76 | 3/3 | S26W+R28F |
| 43 | 2.44 | 3/3 | E23H+N51S+S89T |
| 44 | 1.23 | 3/3 | E23Q+Y31A+G49A |
| 45 | 2.30 | 3/3 | L27A+Y29P+Y30P |
| 46 | no signal | 0/3 | Y31W+G49D+D91N |
| 47 | no signal | 0/3 | Y31D+G94H+Q96A |

Repeated from above, the 7 best binders with a signal in all replicates:

changes,"mean, log10 nM",replicates with signal
E23Q+Y31A+G49A,1.23,3/3
Y29T+Y30I+F95Y,1.69,3/3
D25A+R28P+K50H,2.10,3/3
L27A+Y29P+Y30P,2.30,3/3
D25M+G94C+V97C,2.35,3/3
Y30M+R90P,2.39,3/3
L27T+Y30G+S93E,2.41,3/3

Reference: Engelhart et al. 2022, doi:10.1038/s41597-022-01779-4. File: FLAb, binding data.